Earlier results as cited in US7718385B2, “Bioactivation of alkylating agents for cancer treatment” (priority 2003, dated 2010).

Tested on: human tumor cell lines
Conditions: several human tumor cell lines in vitro; cited from earlier work

CC1=C2C(=C[C@@](C)(CO)[C@@H]2O)C(=O)[C@](C)(O)C12CC2 [Illudin S]
concentrations with cytotoxic and cytostatic properties: nanomolar concentrations
